# Ab-14 heavy chain CDR variants: yeast mating affinities

All variants were tested on one target, the spike HR2 peptide PDVDLGDISGINAS (SARS-CoV-2).

Parent scFv Ab-14: VH joined to VL by the linker GGGGSGGGGSGGGGS. Changes lie in the heavy chain CDRs alone.
VH: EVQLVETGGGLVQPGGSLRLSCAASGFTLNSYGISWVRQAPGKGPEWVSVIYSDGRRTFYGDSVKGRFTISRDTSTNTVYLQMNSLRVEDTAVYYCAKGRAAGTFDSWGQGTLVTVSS
VL: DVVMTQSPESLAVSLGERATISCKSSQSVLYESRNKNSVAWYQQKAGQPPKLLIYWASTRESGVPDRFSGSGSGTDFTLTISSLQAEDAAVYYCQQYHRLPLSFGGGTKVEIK

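The parent was found by panning a naive human phage display library on the peptide. The library (AAYL49) carries one to three amino acid substitutions per variant, with no insertions or deletions. AlphaSeq pools MATa yeast showing the antibodies with MATalpha yeast showing the peptide. After mating in shaken culture at 30 °C for 16 h, diploids were selected and their barcode pairs sequenced. A regression on co-assayed BCL2-family reference pairs converts the normalised counts of each replicate to an apparent Kd. There are three technical replicates.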

Sequences are complete VH domains. Numbers give log10(Kd / nM), so 0 is 1 nM and 3 is 1 µM. Smaller is tighter. Where no diploid with the target was found in that replicate, the entry reads "n.d.": below detection, most likely a poor binder, though not proof of it. Empty control strains, which show no peptide, gave a signal in 15% of pairings with library AAYL49; the median was 4.06 and 95% of these signals were weaker than 2.83. No background was subtracted. The control count says in how many pairings with the empty strains this scFv gave a signal, with their mean in brackets.

VH	replicates, log10 nM	signal with controls
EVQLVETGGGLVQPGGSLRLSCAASGFTLNSMGISWVRQAPGKGPEWVSVIYSTGRRTFYPDSVKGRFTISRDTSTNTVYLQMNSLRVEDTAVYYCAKGRAAGTFDSWGQGTLVTVSS	n.d. n.d. n.d.	0 of 9
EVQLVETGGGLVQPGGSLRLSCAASGFPLNSYGISWVRQAPGKGPEWVSVIYSDGRRTFYGDSVKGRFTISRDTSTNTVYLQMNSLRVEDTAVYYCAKGMAAGTFMSWGQGTLVTVSS	n.d. n.d. n.d.	0 of 9
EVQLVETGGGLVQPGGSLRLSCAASGFTLNSDGISWVRQAPGKGPEWVSVIWSDGRRTFYGDSVKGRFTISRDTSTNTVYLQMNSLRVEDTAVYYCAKGRAAGNFDSWGQGTLVTVSS	n.d. n.d. n.d.	0 of 9
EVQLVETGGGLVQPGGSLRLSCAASGFCLNSYGISWVRQAPGKGPEWVSVIYSDGRRTWYGDSEKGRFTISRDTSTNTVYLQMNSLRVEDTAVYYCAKGRAAGTFDSWGQGTLVTVSS	n.d. n.d. n.d.	0 of 9
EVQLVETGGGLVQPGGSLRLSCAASGFTLNSYDISWVRQAPGKGPEWVSVIYIDGRRTFYGDSVKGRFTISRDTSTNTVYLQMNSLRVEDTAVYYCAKGRARGTFDSWGQGTLVTVSS	n.d. 3.04 n.d.	2 of 9 (3.55)
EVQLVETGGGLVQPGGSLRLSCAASGFTLNSYGIAWVRQAPGKGPEWVSVIHSDGARTFYGDSVKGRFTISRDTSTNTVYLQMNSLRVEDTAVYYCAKGRAAGTFDSWGQGTLVTVSS	n.d. n.d. n.d.	2 of 9 (3.46)
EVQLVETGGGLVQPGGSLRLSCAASWFTLNSYGISWVRQAPGKGPEWVSVIYSGGRRTFYGDSVKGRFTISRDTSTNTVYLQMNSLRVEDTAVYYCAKGRAAGTFASWGQGTLVTVSS	n.d. n.d. n.d.	1 of 9 (2.54)
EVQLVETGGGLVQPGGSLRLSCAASGFTLNSYGISWVRQAPGKGPEWVSVIYSDGRRTFYGSSVKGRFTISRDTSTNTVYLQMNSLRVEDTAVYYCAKGRFAGTFDSWGQGTLVTVSS	3.36 4.21 3.84	6 of 9 (4.50)
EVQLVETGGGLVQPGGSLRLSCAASGFTLNSYGISWVRQAPGKGPEWVSVIYSDGRRTFYGDSVKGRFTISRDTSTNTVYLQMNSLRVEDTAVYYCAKGRLALTFMSWGQGTLVTVSS	n.d. n.d. n.d.	0 of 9
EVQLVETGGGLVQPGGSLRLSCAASGFTLNSEGHSWVRQAPGKGPEWVSVIYSDGRRTFYGDSVKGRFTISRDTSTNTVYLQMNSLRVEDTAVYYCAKGRPAGTFDSWGQGTLVTVSS	n.d. n.d. n.d.	0 of 9
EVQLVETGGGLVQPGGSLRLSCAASGFTLNSYGISWVRQAPGKGPEWVSVIYSAGRRTFYGDSVKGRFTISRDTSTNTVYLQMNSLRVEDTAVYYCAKGLAAGTFDDWGQGTLVTVSS	n.d. n.d. n.d.	1 of 9 (3.88)
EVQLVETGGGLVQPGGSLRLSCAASGFTLDSYGISWVRQAPGKGPEWVSVIYSDGRRKFYGDSVKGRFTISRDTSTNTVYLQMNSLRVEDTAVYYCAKGRAACTFDSWGQGTLVTVSS	4.29 n.d. n.d.	1 of 9 (4.28)
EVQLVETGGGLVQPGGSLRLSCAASGFTLNSYGISWVRQAPGKGPEWVSVIYSDGRRTTYGDSVKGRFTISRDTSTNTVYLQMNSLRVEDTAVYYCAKFRAAVTFDSWGQGTLVTVSS	n.d. 3.26 n.d.	3 of 9 (3.82)
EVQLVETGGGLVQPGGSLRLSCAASGFTLNSYGISWVRQAPGKGPEWVSVIYSDGRRTFYVDSVKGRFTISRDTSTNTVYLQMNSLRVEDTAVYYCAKGRYAGTFSSWGQGTLVTVSS	0.71 1.03 0.98	0 of 9
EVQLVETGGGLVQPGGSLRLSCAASGFMLNSYGISWVRQAPGKGPEWVSVIYSDGRPTFYGDSIKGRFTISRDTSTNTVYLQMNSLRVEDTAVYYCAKGRAAGTFDSWGQGTLVTVSS	n.d. 5.32 n.d.	1 of 9 (3.93)
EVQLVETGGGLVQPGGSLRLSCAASGTTLNSYGISWVRQAPGKGPEWVSVIYSDGERTFYGDSVKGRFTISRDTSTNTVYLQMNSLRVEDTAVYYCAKGRAAGTFDSWGQGTLVTVSS	1.71 1.57 1.70	3 of 9 (5.22)
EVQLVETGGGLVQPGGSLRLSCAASGFTLNSCGISWVRQAPGKGPEWVSVIYVDGRRTFYGDSVKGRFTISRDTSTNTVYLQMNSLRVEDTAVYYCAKGRAAGTFDSWGQGTLVTVSS	n.d. 1.84 n.d.	0 of 9

Extract of 2 entries:

{"VH": "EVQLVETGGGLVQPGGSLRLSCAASGFCLNSYGISWVRQAPGKGPEWVSVIYSDGRRTWYGDSEKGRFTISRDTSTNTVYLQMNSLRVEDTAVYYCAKGRAAGTFDSWGQGTLVTVSS", "replicates, log10 nM": "n.d. n.d. n.d.", "signal with controls": "0 of 9"}
{"VH": "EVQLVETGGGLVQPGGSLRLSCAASGFTLNSYGISWVRQAPGKGPEWVSVIYSDGRRTTYGDSVKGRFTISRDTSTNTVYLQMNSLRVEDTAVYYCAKFRAAVTFDSWGQGTLVTVSS", "replicates, log10 nM": "n.d. 3.26 n.d.", "signal with controls": "3 of 9 (3.82)"}

The measurements come from Engelhart et al. 2022 (doi:10.1038/s41597-022-01779-4) through the FLAb antibody collection.